In paper PMC9974466 (Proceedings of the National Academy of Sciences of the …, 2023):

Target: T1, human PTHR1 (Homo sapiens, UniProt Q03431)
T1 construct: expressed in transfected cells; host or cells: GP2.3 (HEK293-derived)
T1 sequence (Q03431 27-593): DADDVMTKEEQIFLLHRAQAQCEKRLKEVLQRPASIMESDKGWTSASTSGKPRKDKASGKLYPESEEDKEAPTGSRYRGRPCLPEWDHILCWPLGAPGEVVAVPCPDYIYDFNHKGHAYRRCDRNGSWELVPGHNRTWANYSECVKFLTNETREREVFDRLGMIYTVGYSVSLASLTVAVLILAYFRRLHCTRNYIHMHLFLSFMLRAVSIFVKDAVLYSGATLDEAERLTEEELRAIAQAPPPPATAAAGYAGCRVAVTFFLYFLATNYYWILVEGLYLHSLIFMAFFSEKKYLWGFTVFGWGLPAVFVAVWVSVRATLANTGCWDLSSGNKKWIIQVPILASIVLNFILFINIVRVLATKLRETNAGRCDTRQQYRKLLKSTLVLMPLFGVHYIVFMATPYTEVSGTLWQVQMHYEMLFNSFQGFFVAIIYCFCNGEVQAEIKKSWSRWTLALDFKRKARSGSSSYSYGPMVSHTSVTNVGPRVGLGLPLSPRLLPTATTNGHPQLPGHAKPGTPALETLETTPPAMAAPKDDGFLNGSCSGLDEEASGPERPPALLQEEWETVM
Test: PTH-stimulated cAMP formation in GP2.3 reporter cells (Glosensor)
Format: cell-based
Settings: GP2.3 cells; synthetic peptides; mean ± SEM, n = 3; maximum luminescence 20 to 23 min
Protocol: SGS-72 cells, i.e., human osteosarcoma SaOS-2 cells stably expressing the Glosensor cAMP reporter, were maintained in modified McCoy’s 5A medium [15% FBS, 1% penicillin/streptomycin, and 1% nonessential amino acids, as described ([29])]. GP2.3 cells, i.e., HEK293 cells stably expressing the human PTHR1 and the Glosensor cAMP reporter, were maintained in DMEM (10% FBS, 1% penicillin/streptomycin), as described ([24]). Cells were seeded into 96‐well white plates (40,000 cells/100µL/well); 24 to 48 h after confluency, the wells were rinsed with 100 µL carbon dioxide-independent culture medium (CIDB; Life Technologies) containing 0.1% bovine serum albumin (BSA), which was then replaced with 90 µL of luciferin (0.5 mM in CIDB) for 15 min before adding 10 µL of increasing concentrations of PTH analogs diluted in CIDB or 10 µL of CIDB, and then measuring cAMP‐dependent luminescence at 2‐min intervals using a PerkinElmer Envision plate reader (PerkinElmer), as described ([24]). For each well, the maximum luminescence (counts per second, cps) was typically observed 20 to 23 min after ligand addition, which was used to generate ligand dose–response curves, as described ([24]). GP2.3 cells were also used for the evaluation of CM from transfected COS-7 cells; PTH(1-84) served as control.

With `CC[C@H](C)[C@H](NC(=O)[C@H](CCC(=O)O)NC(=O)[C@H](CO)NC(=O)[C@@H](NC(=O)[C@@H](N)CO)C(C)C)C(=O)N[C@@H](CCC(N)=O)C(=O)N[C@@H](CC(C)C)C(=O)N[C@@H](CCSC)C(=O)N[C@@H](Cc1cnc[nH]1)C(=O)N[C@@H](CC(N)=O)C(=O)N[C@@H](CC(C)C)C(=O)NCC(=O)N[C@@H](CCCCN)C(=O)N[C@@H](Cc1cnc[nH]1)C(=O)N[C@@H](CC(C)C)C(=O)N[C@@H](CC(N)=O)C(=O)N[C@@H](CO)C(=O)N[C@@H](CCSC)C(=O)N[C@@H](CCC(=O)O)C(=O)N[C@@H](CCCNC(=N)N)C(=O)N[C@H](C(=O)N[C@@H](CCC(=O)O)C(=O)N[C@@H](Cc1c[nH]c2ccccc12)C(=O)N[C@@H](CC(C)C)C(=O)N[C@@H](CCCNC(=N)N)C(=O)N[C@@H](CCCCN)C(=O)N[C@@H](CCCCN)C(=O)N[C@@H](CC(C)C)C(=O)N[C@@H](CCC(N)=O)C(=O)N[C@@H](CC(=O)O)C(=O)N[C@H](C(=O)N[C@@H](Cc1cnc[nH]1)C(=O)N[C@@H](CC(N)=O)C(=O)N[C@@H](Cc1ccccc1)C(N)=O)C(C)C)C(C)C` [[S1]PTH(1-34), reference compound] the EC50 was 3.5 ± 1.4 nM.
